# Source: PubChem BioAssay AID2445 (The Scripps Research Institute Molecular Screening Center, 2010)
# The chains behind the UniProt entries cited, without tags or fusion partners.
# UniProt P30559, whole entry: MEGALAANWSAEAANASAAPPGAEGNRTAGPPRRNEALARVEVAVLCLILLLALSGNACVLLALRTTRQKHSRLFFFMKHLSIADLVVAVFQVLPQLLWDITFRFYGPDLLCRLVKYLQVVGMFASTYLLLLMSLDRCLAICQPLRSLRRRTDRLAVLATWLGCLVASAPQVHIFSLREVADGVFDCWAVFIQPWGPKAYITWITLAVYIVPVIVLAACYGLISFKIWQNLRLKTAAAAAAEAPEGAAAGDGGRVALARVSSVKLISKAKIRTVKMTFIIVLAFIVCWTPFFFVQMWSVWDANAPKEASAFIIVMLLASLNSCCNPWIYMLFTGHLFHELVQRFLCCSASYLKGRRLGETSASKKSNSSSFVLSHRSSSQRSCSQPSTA
# The entries are a selection whose mix differs from that of the whole data set. Some results for these compounds are left out of this collection, so the calls shown say nothing about other tests. Calls of active or inactive are those of the source.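 Rule for the calls: active = activation above that plate's cutoff, the mean activation of tested compounds plus 3 SD (cut at about 6.6% in these data, passing the limit was not always enough); inactive = the rest.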
# Biological target: Oxytocin receptor (Homo sapiens) (UniProt P30559)
# Assay: human OXTR potentiators, primary screen, fluorescence, CHO-OTR cells, Fluo-8 calcium (AID 2445);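 note: 100% uses oxytocin at 75 nM as the full agonist control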
# Conditions: Fluo-8 calcium fluorescence, potentiator mode, at 3 µM, hits give high values, 0% = oxytocin EC15, 100% = EC100
row,Compound,activation
1,COc1ccc(C(=O)NCC2(N(C)C)CCCCC2)cc1,inactive: 1.28%
2,O=C(NCC1(N2CCCCC2)CCCCC1)c1cccc(Br)c1,inactive: -0.12%
3,Cc1cc(C(=O)NCC2(N3CCCCC3)CCCCC2)ccc1[N+](=O)[O-],inactive: -6.11%
4,CCN1CCCC(OC(=O)C2(O)c3ccccc3C=Cc3ccccc32)C1 (centres undefined),inactive: -10.6%
5,O=C(NCC1(N2CCCCC2)CCCCC1)c1cc(F)c(F)cc1Cl,inactive: 2.82%
6,C=CCN1CCN(CCOC(=O)C(O)(c2ccccc2)c2ccccc2)CC1,inactive: -8.87%
7,CN(C)C1CCCC1OC(=O)C(O)(c1ccccc1)c1ccccc1 (centres undefined),inactive: 3%
8,CN(C)c1ccc(C(=O)NCC2(N(C)C)CCCCC2)cc1,inactive: -3.12%
9,Cc1ccccc1C(=O)NCC1(N2CCCCC2)CCCCC1,inactive: -2.5%
10,Cc1ccc(C(=O)NCC2(N3CCCCC3)CCCCC2)cc1,inactive: -5.27%
11,COc1cc(SC)ccc1C(=O)NCC1(N(C)C)CCCCC1,inactive: -9.54%
12,CCN(CC)CC(C)C(C)OC(=O)C(O)(c1ccccc1)c1ccccc1 (centres undefined),inactive: -4.7%
13,CC(C)N1C(=O)CC2(CCN(CCOC(=O)C(O)(c3ccccc3)c3ccccc3)CC2)C1=O,inactive: -1.52%
14,CN1[C@@H]2CC[C@H]1CC(OC(=O)C(O)(c1ccccc1)c1ccccc1)C2 (some centres undefined),inactive: -2.14%
15,O=C(NCC1(N2CCCCC2)CCCCC1)c1cc([N+](=O)[O-])ccc1Cl,inactive: -11.9%
16,CC(C)Oc1ccc(C(=O)NCC2(N(C)C)CCCCC2)cc1,inactive: -4.84%
17,CN(C)c1cccc(C(=O)NCC2(N(C)C)CCCCC2)c1,inactive: -2.31%
18,COc1ccc(Br)c(C(=O)NCC2(N3CCCCC3)CCCCC2)c1,inactive: -1.4%
19,O=C(OC1CN2CCC1CC2)C(CO)(c1ccccc1)c1ccccc1 (centres undefined),inactive: -12.4%
20,O=C(NCC1(N2CCCCC2)CCCCC1)c1cccc(Cl)c1,inactive: -1.8%
21,COc1ccc(Cl)cc1C(=O)NCC1(N(C)C)CCCCC1,inactive: -0.61%
22,COc1cccc(C(=O)NCC2(N3CCCCC3)CCCCC2)c1,inactive: -4.53%
23,COc1cc(C(=O)NCC2(N(C)C)CCCCC2)c([N+](=O)[O-])cc1OC,inactive: -3.01%
24,CN(C)C1(CNC(=O)c2ccc(Br)cc2)CCCCC1,inactive: -9.69%
